In patent US11396531B2, “Antimicrobial peptides comprising epsilon lysine residues” (priority 2016, dated 2022):

What was measured:
[1] = tested on: P. aeruginosa; format: cell-based, Pseudomonas aeruginosa; details: for MIC against P. aeruginosa (n = 5): Table 4, range over 5 strains
Protocol: (§1) MIC of cationic polymers and polypeptide were tested in accordance with the Clinical and Laboratory Standards Institute (CLSI) guidelines against a panel of antibiotic-susceptible/-resistant bacteria, yeasts and fungal strains. Bacterial and yeast strains were cultured on tryptic soy agar (TSA) and Sabaroud dextrose agar (SDA) plates (Neogen Corporation, MI, USA) overnight respectively. Inocula in Mueller-Hinton broth (MHB) for bacteria and SD broth for C. albicans (Beckton Dickinson, MD, USA) were prepared at 0.5 McFarland. The suspensions were then diluted to a final concentration of 10^5 CFU/ml in a 96-well microtitre plate (SPL Life Sciences Co., Ltd, Korea). Polymers and polypeptides were added to the inoculum in 2-fold serial dilutions to give a range of concentrations from 2-1024 μg/ml. […] The antimicrobial activities were compared with topical antiseptic agents, BAK and CHX. A similar protocol was used to determine the MIC of εPL against antibiotic-resistant pathogens. MIC of the polymers and polypeptides against Fusarium strains was determined in full strength RPMI-1640 buffer. Fungal spores were recovered from a 5-day old culture on a potato dextrose agar and diluted to a concentration of 10^5 spores/ml in 0.9% saline solution. A further 50-fold dilution was done in RPMI-1640 buffer and 100 μl of the inoculum was added to 96 well plates containing an equal volume of test peptides at 2-fold serial dilutions. 200 μl of inoculum without any additives and buffer alone served as positive and negative controls, respectively. The plate was then incubated at 30° C. for 48 h. The absorbance value was measured at 600 nm as before and the lowest concentration of the peptide which inhibited 90% growth was reported. All MIC determinations were performed in duplicates.
(§2) MICs of polymers/antibiotics were determined using the microdilution method in 96 well microtitre plates (SPL Life Sciences Co., Ltd, Korea), following the guidelines of Clinical and Laboratory Standards Institute (CLSI) document M100-S18. Briefly, polymers (1-512 μg/ml) or antibiotics were dissolved in appropriate media (Mueller Hinton broth, MHB for bacteria; Sabaroud's Dextrose (SD) broth for yeasts and RPMI buffer for Fusarium strains) and 100 μl of this was then mixed with an equal volume of microbial inoculum (OD600=˜0.08) in the same media and shaken in a closed incubator.

[2] = tested on: A. baumannii; details: A. baumannii (n = 10), Table 5; for MIC90: 90% of strains susceptible; for MIC: range
Protocol: as §1, with “Korea).” for “Korea). Polymers and polypeptides were added to the inoculum in 2-fold serial dilutions to give a range of concentrations from 2-1024 μg/ml.”
as §2

[3] = tested on: Carbapenam-resistant Enterobacter strains (CRE); details: CRE (n = 19 strains), Table 5; for MIC50: 50% of strains susceptible; for MIC: range
Protocol: as §1, with “Korea).” for “Korea). Polymers and polypeptides were added to the inoculum in 2-fold serial dilutions to give a range of concentrations from 2-1024 μg/ml.”
as §2

[4] = tested on: S. aureus or MRSA; format: cell-based, Staphylococcus aureus; details: for MIC against S. aureus or MRSA (n = 5): Table 4, range over 5 strains
Protocol: as §1, §2

[5] = tested on: primary human dermal fibroblasts (HDFs); experiment: MTS cytotoxicity assay; details: for Cytotoxicity (in μg/ml) for HDFs: Concentration at which complete cytotoxicity was observed in MTS and HCA; for Cytotoxicity for primary human dermal fibroblasts: Table 5
Protocol: MTS ((3-(4,5-dimethylthiazol-2-yl)-5-(3-carboxymethoxyphenyl)-2-(4-sulfophenyl)-2H-tetrazolium)) assay and high content analysis (HCA) were performed to elucidate the effect of various polymers on metabolic activity and morphological parameters of cultured human dermal fibroblasts (hDF), respectively as described previously. The antineoplastic agent, nocodazole (5 μg/ml), served as the […] control whereas cells treated with PBS served as positive control. The average values from three independent triplicate experiments are reported. Cells were cultured in 96-well plates and scanned (16 randomly selected fields/well) using an automated microscope IN Cell Analyzer 2200 (GE Healthcare). The multi-parametric cytotoxicity bio-application module of the IN Cell Investigator software (GE Healthcare) was used in quantitative estimations and morphotypic analysis of acquired images, which were automatically converted into color-coded heatmaps using Spotrfire® software.
Human dermal fibroblast cells were seeded in 96-well plates (2×10^3 cells/well) and incubated for 24 h at 37° C. and 5% CO2. Cells were then treated with various concentrations of polymers or peptides (62.5 μg/ml-1 mg/ml. At the end of the treatment period (after 24 h), 20 or 50 μl of MTS tetrazolium solution was added into 96-well or 12-well plates and further incubated for 2 h at 37° C. Subsequently, the absorbance was measured at 490 nm using a microplate reader (Infinite M200 Pro, Tecan, Switzerland) and the relative cell viability was calculated. Each treatment was performed in two triplicates and reported.
The cytotoxicity of peptides and polymers were determined using CellTier 96® Aqueous One solution cell proliferation assay kit according to the manufacturer's instruction (Promega Corporation, Madison, Wis.). This assay evaluates mitochondrial function by measuring ability of viable cells to reduce MTS ((3-(4,5-dimethylthiazol-2-yl)-5-(3-carboxymethoxyphenyl)-2-(4-sulfophenyl)-2H-tetrazolium)) into a quantifiable […] formazan product. HDFs were seeded in 96-well plates (2×10^3 cells/well) and incubated for 24 h at 37° C. and 5% CO2. Cells were then treated with a concentrated stock solution of polymers (final concentration 62.5-2000 μg/ml in the well) or peptides (final concentration 4-1000 μg/ml in the well). After 24 h, 20 μl of MTS tetrazolium solution was added into 96-well well plates and further incubated for 2 h at 37° C. Subsequently, the absorbance was measured at 490 nm using a microplate reader (Infinite M200 Pro, Tecan, Switzerland) and the relative cell viability was calculated relative to untreated control (10 mM PBS, pH 7.0). Each treatment was performed in two triplicates and reported.

Row | SMILES | fold increase in GM-MIC versus melittin ([1]; P. aeruginosa strains) [fold] | MIC against P. aeruginosa (n = 5) [1] [µg/mL] | MIC90 [2] | MIC [2] [µg/mL] | MIC50 [3] | MIC [3] [µg/mL] | fold increase in the MIC values versus melittin ([4]; S. aureus strains) | MIC against S. aureus or MRSA (n = 5) [4] [µg/mL] | Cytotoxicity (in μg/ml) for HDFs [5] [µg/mL] | Cytotoxicity for primary human dermal fibroblasts [5] [µg/mL] | concentration at which peptide becomes cytotoxic toward HDF [5] [µM]
1 | CC[C@H](C)[C@H](NC(=O)CN)C(=O)NCC(=O)N[C@@H](C)C(=O)N[C@H](C(=O)N[C@@H](CC(C)C)C(=O)NCCCC[C@H](N)C(=O)N[C@H](C(=O)N[C@@H](CC(C)C)C(=O)N[C@H](C(=O)N[C@H](C(=O)NCC(=O)N[C@@H](CC(C)C)C(=O)N1CCC[C@H]1C(=O)N[C@@H](C)C(=O)N[C@@H](CC(C)C)C(=O)N[C@H](C(=O)N[C@@H](CO)C(=O)N[C@@H](Cc1c[nH]c2ccccc12)C(=O)N[C@H](C(=O)NCCCC[C@H](N)C(=O)N[C@@H](CCCNC(=N)N)C(=O)NCCCC[C@H](N)C(=O)N[C@@H](CCCNC(=N)N)C(=O)N[C@@H](CCC(N)=O)C(=O)N[C@@H](CCC(N)=O)C(N)=O)[C@@H](C)CC)[C@@H](C)CC)[C@@H](C)O)[C@@H](C)O)C(C)C)C(C)C [Peptide 4] | 3 | 16 to 64 | (MIC90 = 8) μg/ml | 4 to 8 | (MIC50 = 16) μg/ml | 8 to 64 | 4-32 fold | 32 to 128 | 1000 | 1000 | –
2 | CC[C@H](C)[C@H](NC(=O)CN)C(=O)NCC(=O)N[C@@H](C)C(=O)N[C@H](C(=O)N[C@@H](CC(C)C)C(=O)NCCCC[C@H](N)C(=O)N[C@H](C(=O)N[C@@H](CC(C)C)C(=O)N[C@H](C(=O)N[C@H](C(=O)NCC(=O)N[C@@H](CC(C)C)C(=O)N1CCC[C@H]1C(=O)N[C@@H](C)C(=O)N[C@@H](CC(C)C)C(=O)N[C@H](C(=O)N[C@@H](CO)C(=O)N[C@@H](Cc1c[nH]c2ccccc12)C(=O)N[C@H](C(=O)N[C@@H](CCCCN)C(=O)N[C@@H](CCCNC(=N)N)C(=O)N[C@@H](CCCCN)C(=O)N[C@@H](CCCNC(=N)N)C(=O)N[C@@H](CCC(N)=O)C(=O)N[C@@H](CCC(N)=O)C(N)=O)[C@@H](C)CC)[C@@H](C)CC)[C@@H](C)O)[C@@H](C)O)C(C)C)C(C)C [Peptide 3] | – | 16 to 32 | (MIC90 = 4) μg/ml | 2 to 4 | (MIC50 = 8) μg/ml | 8 to 64 | – | 8 to 32 | 250 | 250 | 87.8
